The numbers were not newly measured in article PMC5131886 (CPT: Pharmacometrics & Systems Pharmacology, 2016), which cites them from elsewhere.

Each structure is given as a SMILES string. pIC50: −log10 of the molar value.

The data set concerns cells expressing VEGFR2. The following applies: read-out: in vitro measured IC50 for cells expressing VEGFR2; cited from earlier work.

What is called pIC50 is the IC50 on a negative log10 scale, so that one unit is a factor of ten. As to `CCN(CC)CCNC(=O)c1c(C)[nH]c(/C=C2\C(=O)Nc3ccc(F)cc32)c1C` [Sunitinib, Sunitinib malate], the pIC50 is 8.00.
